We go through one substance from patent EP1056860B1.

The assay concerns the target tumor-associated glycoprotein TAG-72 (human). The assay is described as follows: solid-phase assay on TAG-72 coated plates with 125I-labeled goat anti-human IgG, Scatchard analysis, mean of 7 analyses.

As for “chimeric CC49 antibody MuVH/MuVK (ATCC HB 9884)”, the Ka stood at 7.62e+09 M⁻¹.
